Values quoted from earlier work as cited in publication PMC9504748, “Discovery of Flavonoids as Novel Inhibitors of ATP Citrate Lyase: Structure–Activity Relationship and Inhibition Profiles” (International Journal of Molecular Sciences, 2022).

Molecular target: T1, ACLY (Homo sapiens, UniProt P53396)
T1 construct: His; made in house; host or cells: Escherichia coli BL21(DE3)
T1 sequence (P53396 1-1101): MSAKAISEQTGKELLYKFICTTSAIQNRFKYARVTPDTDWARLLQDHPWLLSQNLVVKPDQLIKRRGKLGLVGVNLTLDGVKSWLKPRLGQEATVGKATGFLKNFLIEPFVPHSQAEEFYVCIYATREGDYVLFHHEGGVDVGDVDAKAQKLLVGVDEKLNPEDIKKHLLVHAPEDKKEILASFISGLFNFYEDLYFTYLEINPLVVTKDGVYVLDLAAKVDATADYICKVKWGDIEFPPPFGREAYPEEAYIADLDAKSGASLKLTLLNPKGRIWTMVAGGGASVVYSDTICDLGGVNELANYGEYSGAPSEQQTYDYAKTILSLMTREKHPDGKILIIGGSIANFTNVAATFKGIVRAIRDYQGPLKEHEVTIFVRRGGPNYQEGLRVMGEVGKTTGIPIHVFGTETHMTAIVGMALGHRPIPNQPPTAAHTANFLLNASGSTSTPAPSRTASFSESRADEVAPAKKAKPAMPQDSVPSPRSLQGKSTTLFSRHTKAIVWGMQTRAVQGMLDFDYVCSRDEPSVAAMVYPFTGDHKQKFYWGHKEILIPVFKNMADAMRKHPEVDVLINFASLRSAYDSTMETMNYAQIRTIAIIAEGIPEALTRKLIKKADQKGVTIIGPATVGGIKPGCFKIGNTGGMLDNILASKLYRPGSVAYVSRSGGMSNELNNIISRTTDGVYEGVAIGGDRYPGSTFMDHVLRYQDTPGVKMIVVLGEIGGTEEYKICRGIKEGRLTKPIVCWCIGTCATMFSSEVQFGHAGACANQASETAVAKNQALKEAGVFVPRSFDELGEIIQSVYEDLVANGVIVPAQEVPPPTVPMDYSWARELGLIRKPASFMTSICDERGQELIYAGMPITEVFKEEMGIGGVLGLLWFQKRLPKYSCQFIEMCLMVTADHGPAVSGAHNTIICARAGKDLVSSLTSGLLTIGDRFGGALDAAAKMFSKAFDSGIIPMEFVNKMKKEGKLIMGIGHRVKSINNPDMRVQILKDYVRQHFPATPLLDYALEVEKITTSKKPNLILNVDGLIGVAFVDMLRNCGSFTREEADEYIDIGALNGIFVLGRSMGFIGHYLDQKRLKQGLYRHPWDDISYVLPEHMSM
Conditions: natural ACLY inhibitors, discussion; no reference given; cited from earlier work

For purporone, the IC50 is listed as 8 µM.
